Screens deposited in PubChem by ICCB-Longwood Screening Facility, Harvard Medical School.
GIV-Gai inh = GIV-Galpha-i interaction inhibition. P08753. Galpha-i3/FITC-GIV peptide fluorescence polarization, 90 min; active compounds read low; scaled: aluminum fluoride 0%, vehicle 100%. percent of control (FP), % (test concentration not listed). 210,000 compounds, 0.42% hits. AID 1224905;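 active = replicate mean at 85% of control or lower, very high polarization wells dropped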;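 also: lower values mean more displacement of the GIV peptide from Galpha-i3; wells of about 15 µL received 100 nL stock; the first replicate is given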
* hit, by the source's call. The full list was thinned out, with hits kept by preference.

SMILES	GIV-Gai inh
Cc1c(/C=C2\SC(c3ccccc3)=NC2=O)c(=O)n(-c2ccccc2)n1C	-4.0*
O=C1N=C(c2ccccc2)S/C1=C\c1cccs1	113.2
Cc1c(N=C/C=C/c2ccccc2)c(=O)n(-c2ccccc2)n1C	101.1
Cc1cc(C)c2c(n1)sc1c(=O)n(CC(=O)Nc3ccc4c(c3)OCO4)cnc12	95.5
CCCNC(=O)CCc1c(C)nc2cc(-c3ccccc3)nn2c1C	104.5
N#Cc1c(S/C=C(\O)c2ccccc2)nc2c(c1C(F)(F)F)CCCC2	-44.1*
Cc1coc(NC(=O)CSc2nc3c(c(C(F)(F)F)c2C#N)CC(c2ccccc2)CC3)n1 (stereo unspecified)	100.9
N#Cc1c(N=CN2CCCCC2)nc2c(c1-c1ccccc1)CCCC2	101.3
CCOC(=O)C1=c2s/c(=C/c3ccc(CC)cc3)c(=O)n2C(N)=C(C#N)C1c1ccc(CC)cc1 (stereo unspecified)	102.5
Cc1cc(N2CCN(C(=O)/C=C/C(=O)O)CC2)c2ccccc2n1	100.2
Cc1cc(N2CCN(C(=O)C3CCC3C(=O)O)CC2)c2ccccc2n1 (stereo unspecified)	93.8
Cc1cc(C)c2cc3c(cc2n1)CCN3CC(O)CO (stereo unspecified)	-26.4*
O=C(Nc1ccc2nc(N3CCC(N4CCCCC4)CC3)cc(C(=O)O)c2c1)c1cccc(Cl)c1	105.4
O=C1Nc2ccccc2/C1=C/c1ccccc1	109.2
O=C1/C(=C/c2ccccc2)Nc2ccccc21	-102.2*
O=C1Nc2ccccc2C(=O)C1=Ic1ccccc1	98.4
CCS(=O)(=O)c1nc2ccc(NS(=O)(=O)c3ccc(OC)c(OC)c3)cc2s1	106.6
Cc1cccc(NC(=O)CCn2ccc(C)n2)n1	100.5
CCOc1cc(/C=N\NC(=O)Cn2c(-c3nonc3N)nc3ccccc32)cc(I)c1OC	109.2
C/C(=N\NC(=O)c1ccc(CN2CCOCC2)cc1)c1ccc2c(c1)OCCO2	107.3
Cc1nnc(N2C(=O)C(=O)/C(=C(/O)c3ccccc3)C2c2ccccc2)s1 (stereo unspecified)	114.7
Cc1nnc(N2C(=O)C(O)=C(C(=O)c3cccs3)C2c2ccccc2F)s1 (stereo unspecified)	-9.4*
Cc1nnc(N2C(=O)c3oc4ccccc4c(=O)c3C2c2ccc(F)cc2)s1 (stereo unspecified)	101.9
COc1cccc(CNC(=O)C(NS(=O)(=O)c2cccc3nsnc23)c2ccccc2)c1 (stereo unspecified)	98.5
Cc1ccc(OC(=O)c2cccc(S(=O)(=O)N3CCOCC3)c2)c(-n2nc3ccccc3n2)c1	97.5

2 consecutive entries out of the list so far:
SMILES	GIV-Gai inh
COc1cccc(CNC(=O)C(NS(=O)(=O)c2cccc3nsnc23)c2ccccc2)c1 (stereo unspecified)	98.5
Cc1ccc(OC(=O)c2cccc(S(=O)(=O)N3CCOCC3)c2)c(-n2nc3ccccc3n2)c1	97.5

Next part:
SMILES	GIV-Gai inh
CCOc1ccccc1C1C(C#N)=C(N)Oc2n[nH]c(-c3cc(OC)c(OC)c(OC)c3)c21 (stereo unspecified)	100.8
CCOc1ccccc1-n1c(N)c(C#N)c(N)c(C#N)c1=S	106.7
CCOc1ccccc1C1C(C#N)=C(N)SC(N)=C1C#N	-78.3*
Cc1cc2c(cc1S(=O)(=O)N1CCCC(C(=O)NC3CC3)C1)OC(C)C(=O)N2 (stereo unspecified)	101.0
Cc1cccc(NC(=O)Cn2c(=O)cc(C(=O)NCc3ccccc3)c3ccccc32)c1C	106.5
Cc1ccc(/C=C2/SC(=S)N(CCc3ccc(Cl)cc3)C2=O)o1	109.3
Cc1ccc(/C=C2/SC(=S)N(c3ccc(C(=O)O)c(O)c3)C2=O)o1	163.6
Cc1ccc(/C=C2\SC(=O)NC2=S)o1	46.3*
O=C(c1ccc(N2CCN(c3ncccn3)CC2)nn1)N1CCc2ccccc21	102.9
Cc1ccc(Nc2nc(NCCO)nc3c2cnn3-c2ccccc2)cc1	99.2
COc1ccc(F)cc1-c1cc(N2CCN(S(=O)(=O)c3cnn(C(F)F)c3C)CC2)ncn1	99.6
CCOC(=O)c1c(NC(=O)Nc2ccc(Cl)c(Cl)c2)sc(C)c1C	101.6
CC(=O)Nc1ccc(S(=O)(=O)NCc2csc3ccccc23)cc1	108.7
CN(C)c1ccc(-c2nc3cc(N)ccc3o2)cc1	101.1
O=c1cc(-c2ccccc2)nc(-c2ccccc2)o1	101.3
CN(C)c1ccc(-c2nc(-c3cccc(I)c3)cc(=O)o2)cc1	-18.2*
Cc1ccc2c(c1)N(C(=O)CCC1CCCCC1)C(C)(C)c1ssc(=S)c1-2	116.6
CCC(=O)N1CCc2cc(N3CC(C(=O)NC(C)CC)CC3=O)ccc21 (stereo unspecified)	103.2
CCc1ccc(-c2ccc(=O)n(CCc3nc(-c4cc(OC)cc(OC)c4)no3)n2)cc1	100.8
C=C(C)Cn1nc(SCC)n2c(=O)c3c(nc12)-c1ccccc1CC3(C)C	105.5
COc1ccc(N2CCN(/C=C(\C#N)c3nc4ccccc4s3)CC2)cc1	-61.0*
CC(C)=C(C#N)c1nc2ccccc2s1	109.5
CSC(SC)=C(C#N)c1nc2ccccc2s1	214.9
Cc1cc(C)c(OCC(=O)O)c(Cl)c1	104.2
O=C1S/C(=C\c2ccc(N3CCOCC3)o2)C(=O)N1Cc1ccc(F)cc1	258.5
More structures follow:
SMILES	GIV-Gai inh
O=C(CN1C(=O)S/C(=C\c2ccc(N3CCOCC3)o2)C1=O)Nc1ccccc1F	-19.3*
O=C(CN1C(=O)S/C(=C\c2ccc(-c3ccc(F)cc3F)o2)C1=O)N1CCOCC1	104.3
O=C(NCCCN1CCOCC1)c1cc2ccccc2[nH]1	102.1
Cc1ccc(Cn2nnc3c(N4CCOCC4)nc(C)nc32)cc1	99.5
CCOc1cccc(-c2nc(C(N)=O)c3[nH]c(=O)n(CC4CCCO4)c3n2)c1O (stereo unspecified)	102.0
CN(CC(=O)NCc1ccccc1)c1nnc(N2CCCC2=O)s1	107.4
CC1CCN(C(=O)Cn2c(=O)c3ccccc3n3c(=S)sc(-c4cccc(F)c4)c23)CC1	108.7
CCOC(=O)C1CCCN(C(=O)Cn2c(=O)c3ccccc3n3c(=S)sc(-c4ccc(Cl)cc4)c23)C1 (stereo unspecified)	134.9
CCOC(=O)C1CCCN(C(=O)Cn2c(=O)c3ccccc3n3c(=S)sc(-c4cccc(F)c4)c23)C1 (stereo unspecified)	77.0*
CCOC(=O)Cn1c(=NC(=O)c2ccco2)sc2cccc(F)c21	104.8
O=C(CN1c2ccc(F)cc2-c2ccccc2S1(=O)=O)NCc1ccccn1	106.3
O=C(C1CCCO1)N1CCN(C(=S)NCc2ccc(F)cc2)CC1 (stereo unspecified)	103.8
COc1ccc2c(CNCc3ccccc3)c(C(=O)O)[nH]c2c1	109.8
CC(C)(C)NC(=O)NCc1n[nH]c(=O)c2ccccc12	98.6
CCC(=O)N(C)/C=C1\Sc2ccccc2C1=O	104.4
O=CN(/C=C1\Sc2ccccc2C1=O)c1cccc2ccccc12	-0.2*
CC(=O)N(C)/C=C1\Sc2ccccc2C1=O	110.4
CC(C)N1CCc2c(sc(NC(=O)C(C)(C)C)c2-c2nc3ccccc3s2)C1	-26.3*
CC(=O)Nc1sc2c(c1-c1nc3ccccc3s1)CCN(C(C)C)C2	-3.2*
COC(=O)c1ccc(C(=O)Nc2sc3c(c2-c2nc4ccccc4s2)CCN(C(C)C)C3)cc1	262.4
CN1CCc2c(sc(NC(=O)c3nc4ccccc4s3)c2-c2nc3ccccc3s2)C1	95.5
COc1ccc(C(=O)Nc2sc3c(c2-c2nc4ccccc4s2)CCN(C(C)C)C3)cc1OC	-3.2*
CC(=O)N1CCc2c(sc(NC(=O)CSc3ccc(F)cc3)c2-c2nc3ccccc3s2)C1	107.9
CCOC(=O)N1CCN(S(=O)(=O)c2ccc(C(=O)Nc3sc4c(c3-c3nc5ccccc5s3)CCCC4)cc2)CC1	109.9
COc1ccc(C(=O)Nc2cc(-c3nc4ccccc4s3)ccc2C)cc1OC	95.7

Reformatted with each value named: entries from further up.
molecule: CC(=O)Nc1sc2c(c1-c1nc3ccccc3s1)CCN(C(C)C)C2
- GIV-Gai inh = -3.2*

molecule: COC(=O)c1ccc(C(=O)Nc2sc3c(c2-c2nc4ccccc4s2)CCN(C(C)C)C3)cc1
- GIV-Gai inh = 262.4

molecule: CN1CCc2c(sc(NC(=O)c3nc4ccccc4s3)c2-c2nc3ccccc3s2)C1
- GIV-Gai inh = 95.5

molecule: COc1ccc(C(=O)Nc2sc3c(c2-c2nc4ccccc4s2)CCN(C(C)C)C3)cc1OC
- GIV-Gai inh = -3.2*
